{"source": "patent US20220062166A1", "about": "“Self-Gelling Solutions for Administration of Therapeutics to the Inner Ear” (Spiral Therapeutics, Inc., priority 2019, published 2022)", "key": {"[1]": {"test": "GLP auditory safety study in rats after single TT administration", "details": "single TT dose 200, 400, or 797 μM, 30 μL per ear"}, "[2]": {"test": "Dermal sensitization range-finding pilot substudy in guinea pigs", "assay_type": "in vivo, guinea pig", "details": "topical 50 μl of 200, 400, or 797 μM", "experimental": "The test article, LPT99, was in a neutral-pH, buffered, isotonic solution containing a thermoreversible compound. The vehicle control was buffered at neutral pH and formulated as for the test article; it contained POLOXAMER® 407, disodium phosphate dodecahydrate hydrogen, sodium dihydrogen phosphate dihydrate, sodium chloride, and water for injection. […] Charles River, Stone Ridge, N.Y.) were dosed."}}, "data": [{"smiles": "COc1ccc2[nH]cc(CCNC(=O)CC3C(=O)N(CCc4ccc(Cl)cc4Cl)CC(=O)N3CCc3cccs3)c2c1", "note": "(centres unmarked) [LPT99, 2-(4-(2,4-dichlorophenethyl)-3,6-dioxo-1-(2-(thiophen-2-yl)ethyl)piperazin-2-yl)-N-(2-(5-methoxy-1H-indol-3-yl)ethyl)acetamide]", "values": [{"measurement": "tolerability", "setting": "[1]", "value": "generally well tolerated"}, {"measurement": "Draize scores (erythema, edema)", "setting": "[2]", "value": 0}]}]}
